These results are taken from patent publication US20110118276A1, “METHODS OF TREATING ATHEROSCLEROSIS” (priority 2008, published 2011).

Sequences of proteins named here, by UniProt entry; tags and fusion partners are left off.
UniProt P0DMS8, whole entry: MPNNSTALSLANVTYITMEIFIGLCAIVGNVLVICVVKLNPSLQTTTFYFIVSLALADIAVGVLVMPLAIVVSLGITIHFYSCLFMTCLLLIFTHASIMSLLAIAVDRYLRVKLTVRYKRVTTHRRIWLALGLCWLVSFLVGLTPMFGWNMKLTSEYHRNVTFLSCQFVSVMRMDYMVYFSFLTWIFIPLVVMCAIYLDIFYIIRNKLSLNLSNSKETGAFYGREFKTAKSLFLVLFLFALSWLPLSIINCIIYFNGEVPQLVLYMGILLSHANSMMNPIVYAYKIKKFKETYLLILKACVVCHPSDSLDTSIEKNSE

Molecules are shown by their SMILES.

In the assay the target is T1, human A3 adenosine receptors (Homo sapiens, UniProt P0DMS8).
T1 construct: U937 cells and macrophages were homogenized, respectively, in hypotonic buffer and phosphate-buffered saline (PBS); endogenous in cells; host or cells: PMA-treated U937 cells, human macrophages, U937-derived foam cells (membranes)
The assay is described as follows: Saturation binding with [3H]MRE 3008F20 to label A3 adenosine receptors.

The term Kd denotes a measure of binding affinity in units of concentration. Read a high Kd as lower affinity. As for `CCCn1cc2c(nc(NC(=O)Nc3ccc(OC)cc3)n3nc(-c4ccco4)nc23)n1` [[^3H]MRE-3008F20, 5-N-(4-methoxyphenyl-carbamoyl)amino-8-propyl-2-(2furyl)-pyrazolo-[4,3e]-1,2,4-triazolo[1,5-c]pyrimidine], the Kd runs as follows: (U937 cells, hypoxic) 2 ± 0.1 nM; (U937 cells, normoxic) 1.5 ± 0.1 nM; (foam cells, hypoxic) 2.3 ± 0.1 nM; (foam cells, normoxic) 1.7 ± 0.1 nM; (human macrophages, hypoxic) 4.8 ± 0.7 nM; (human macrophages, normoxic) 4.5 ± 0.5 nM.
